The values that follow come from patent publication US8088763B2 (priority 2004, dated 2012).

By UniProt entry, the sequences of proteins in these tests, tags left out. Where a name states a change or a piece, a line headed by the entry shows the natural chain unless it says otherwise.
UniProt P35372, whole entry, looked up: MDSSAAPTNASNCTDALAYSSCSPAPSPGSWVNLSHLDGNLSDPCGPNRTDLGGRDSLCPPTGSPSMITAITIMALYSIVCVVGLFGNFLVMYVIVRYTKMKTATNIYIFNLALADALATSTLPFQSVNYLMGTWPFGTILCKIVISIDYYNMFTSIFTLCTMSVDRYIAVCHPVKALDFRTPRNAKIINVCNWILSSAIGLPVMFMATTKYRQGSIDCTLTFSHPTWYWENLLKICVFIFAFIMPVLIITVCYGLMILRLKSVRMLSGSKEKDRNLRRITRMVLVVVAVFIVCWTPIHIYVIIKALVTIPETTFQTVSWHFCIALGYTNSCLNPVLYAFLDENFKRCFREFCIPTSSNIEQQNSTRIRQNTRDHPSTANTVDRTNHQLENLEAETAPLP
UniProt P41146: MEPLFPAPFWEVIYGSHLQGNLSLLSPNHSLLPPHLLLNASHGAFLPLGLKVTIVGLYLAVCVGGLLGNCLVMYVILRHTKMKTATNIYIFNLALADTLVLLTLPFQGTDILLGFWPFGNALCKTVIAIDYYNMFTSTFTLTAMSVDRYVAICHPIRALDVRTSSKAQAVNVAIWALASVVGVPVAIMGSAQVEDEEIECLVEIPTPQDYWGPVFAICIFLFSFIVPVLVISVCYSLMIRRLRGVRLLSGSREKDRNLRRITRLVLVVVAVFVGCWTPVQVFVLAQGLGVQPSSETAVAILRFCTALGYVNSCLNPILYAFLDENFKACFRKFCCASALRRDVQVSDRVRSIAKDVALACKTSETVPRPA

The first test addresses human μ-opiate receptor (Homo sapiens, UniProt P35372). The test is described as follows: μ-binding: displacement of [3H]-naloxone, receptor membrane preparation of CHO-K1 cells. The following applies: 1 μM test compound; 1 nmol/l [3H]-naloxone. A general note: In a radioligand displacement assay an active substance lowers the binding of a labelled ligand.
Turning to `Cc1cccc(CC2(N(C)C)CCC(NC(=O)CCC(=O)N3CCN(c4cc(Cl)ccc4C)CC3)CC2)c1` (stereo not drawn), the “μ-binding, [1 μM], % inhibition” value is on record as 67%.
On to `CN(C)C1(Cc2cccc(Cl)c2)CCC(NC(=O)CCC(=O)NCCc2cccc(F)c2)CC1` (stereo not drawn), for which the “μ-binding, [1 μM], % inhibition” value is listed as 57%.
As to `Cc1ccc(Cl)cc1N1CCN(C(=O)CCC(=O)NC2CCC(Cc3cccc(Cl)c3)(N(C)C)CC2)CC1` (stereo not drawn), the “μ-binding, [1 μM], % inhibition” value is recorded as 51%.
`CN(C)C1(Cc2cccc(Cl)c2)CCC(NC(=O)CCC(=O)N2CCN(c3ccccc3F)CC2)CC1` (stereo not drawn): the “μ-binding, [1 μM], % inhibition” value is recorded as 73%.
On to `Cc1cccc(CC2(N(C)C)CCC(NC(=O)CCC(=O)NCCSCc3ccccc3)CC2)c1` (stereo not drawn), for which the “μ-binding, [1 μM], % inhibition” value came out at 70%.
Consider `Cc1cccc(CC2(N(C)C)CCC(NC(=O)CCC(=O)NCc3c(C)cccc3Cl)CC2)c1` (stereo not drawn), for which the “μ-binding, [1 μM], % inhibition” value was 54%.
With `CN(C)C1(Cc2cccc(Cl)c2)CCC(NC(=O)CCC(=O)NCCSCc2ccccc2)CC1` (stereo not drawn), the “μ-binding, [1 μM], % inhibition” value worked out at 70%.
Consider `Cc1cccc(CC2(N(C)C)CCC(NC(=O)CCC(=O)N3CC=C(c4ccccc4)CC3)CC2)c1` (stereo not drawn), for which the “μ-binding, [1 μM], % inhibition” value came to 54%.
The same measure, in the same setting: in the case of `CN(C)C1(Cc2cccc(Cl)c2)CCC(NC(=O)CCC(=O)NCc2cc(F)cc(F)c2)CC1` (stereo not drawn) it was 50%; in that of `Cc1cccc(CC2(N(C)C)CCC(NC(=O)CCC(=O)NCc3ccccc3Cl)CC2)c1` (stereo not drawn), 51%; in that of `CN(C)C1(Cc2cccc(Cl)c2)CCC(NC(=O)CCC(=O)NC(c2ccccc2)c2ccccc2)CC1` (stereo not drawn), 62%.
For `COc1ccc(N2CCN(C(=O)CCCC(=O)NC3CCC(Cc4ccccc4)(N(C)C)CC3)CC2)c(OC)c1` (stereo not drawn), the “μ-binding, [1 μM], % inhibition” value is reported as 58%.
For `CN(C)C1(Cc2cccc(Cl)c2)CCC(NC(=O)CCC(=O)NC2CCCCCCC2)CC1` (stereo not drawn), the “μ-binding, [1 μM], % inhibition” value amounted to 50%.
For the molecule `CN(C)C1(Cc2cccc(Cl)c2)CCC(NC(=O)CCC(=O)NCCc2ccccc2)CC1` (stereo not drawn), the “μ-binding, [1 μM], % inhibition” value was 50%.
Consider `CN(C)C1(Cc2cccc(Cl)c2)CCC(NC(=O)CCC(=O)NCc2ccc(F)c(F)c2)CC1` (stereo not drawn), for which the “μ-binding, [1 μM], % inhibition” value is given as 57%.
Turning to `CC1CC(C)CN(C(=O)CCC(=O)NC2CCC(Cc3cccc(Cl)c3)(N(C)C)CC2)C1` (stereo not drawn), the “μ-binding, [1 μM], % inhibition” value is 56%.
Same read-out and setting: next, `CN(C)C1(Cc2cccc(Cl)c2)CCC(NC(=O)CCC(=O)NCCCc2ccccc2)CC1` (stereo not drawn): 59%; `Cc1cccc(CC2(N(C)C)CCC(NC(=O)CCC(=O)NCc3ccc(F)cc3C(F)(F)F)CC2)c1` (stereo not drawn): 66%; `CC(C)CC(C)NC(=O)CCCC(=O)NC1CCC(Cc2ccccc2)(N(C)C)CC1` (stereo not drawn): 56%.
For the molecule `Cc1ccccc1N1CCN(C(=O)CCCC(=O)NC2CCC(Cc3ccccc3)(N(C)C)CC2)CC1` (stereo not drawn), the “μ-binding, [1 μM], % inhibition” value is reported as 59%.
“N-[2-(4-chloro-phenyl)-ethyll-N′-[4- dimethylamino-4-(3-methyl-benzyl)- cyclohexyl]-succinamide”: the “μ-binding, [1 μM], % inhibition” value stood at 53%.
Take `CCN(Cc1ccccc1)C(=O)CCC(=O)NC1CCC(Cc2cccc(C)c2)(N(C)C)CC1` (stereo not drawn): the “μ-binding, [1 μM], % inhibition” value is 60%.
Take `Cc1cccc(CC2(N(C)C)CCC(NC(=O)CCC(=O)NCc3ccc(Br)cc3F)CC2)c1` (stereo not drawn): the “μ-binding, [1 μM], % inhibition” value was determined as 62%.
On the same count and under the same terms, in the case of `CN(C)C1(Cc2cccc(Cl)c2)CCC(NC(=O)CCC(=O)NCCSCc2c(Cl)cccc2Cl)CC1` (stereo not drawn) it was 57%; in that of `CN(C)C1(Cc2cccc(Cl)c2)CCC(NC(=O)CCC(=O)NCc2cccc(Br)c2)CC1` (stereo not drawn), 67%.

The target of the next test is ORL1 receptor (Homo sapiens, UniProt P41146). The test is described as follows: ORL1 binding: receptor binding assay with 3H-nociceptin/orphanin FQ, membranes of recombinant CHO-ORL1 cells. The following applies: 1 μM test compound; 0.5 nM 3H-nociceptin/orphanin FQ.
On to `CN(C)C1(c2ccccc2)CCC(NC(=O)CCC(=O)NCCc2ccc(Cl)c(Cl)c2)CC1` (stereo not drawn), for which the “ORL1-binding, [1 μM], % inhibition” value is recorded as 99%.
As to `CN(C)C1(c2cccs2)CCC(NC(=O)CCC(=O)NCCc2ccc(Oc3ccccc3)cc2)CC1` (stereo not drawn), the “ORL1-binding, [1 μM], % inhibition” value is recorded as 98%.
Still for that read-out and setting: next, “Glutaric acid-(4-dimethylamino-4-thiophen- 2-yl-cyclohexyl)-amide[2-(1H-indol-3-yl)- ethyl]-amide”: 99%; `CN(C)C1(c2cccs2)CCC(NC(=O)CCCC(=O)NC2CCC(C(C)(C)C)CC2)CC1` (stereo not drawn): 91%; `C=C(C)CN(CC)C(=O)CCCC(=O)NC1CCC(c2cccs2)(N(C)C)CC1` (stereo not drawn): 78%.
Same read-out and setting: in the case of “Glutaric acid-(4-dimethylamino-4-thiophen- 2-yl-cyclohexyl)-amide[2-(3-methoxy- phenyl)-ethyl]-amide” it was 95%; in that of `CCN(Cc1ccccc1)C(=O)CCCC(=O)NC1CCC(c2cccs2)(N(C)C)CC1` (stereo not drawn), 78%; in that of `CN(C)C1(c2cccs2)CCC(NC(=O)CCCC(=O)NC2CCCC2OCc2ccccc2)CC1` (stereo not drawn), 64%.
On to `CC(CCc1ccccc1)NC(=O)CCC(=O)NC1CCC(c2cccs2)(N(C)C)CC1` (stereo not drawn), for which the “ORL1-binding, [1 μM], % inhibition” value amounted to 88%.
Turning to `CN(C)C1(c2cccs2)CCC(NC(=O)CCC(=O)N2CCC(C(=O)c3ccc(Cl)cc3)CC2)CC1` (stereo not drawn), the “ORL1-binding, [1 μM], % inhibition” value is 69%.
As to `CN(C)C1(c2cccs2)CCC(NC(=O)CCC(=O)N(CCC#N)CCC#N)CC1` (stereo not drawn), the “ORL1-binding, [1 μM], % inhibition” value is 39%.
The same measure, in the same setting: next, `COc1ccc(Br)cc1CCNC(=O)CCCC(=O)NC1CCC(c2cccs2)(N(C)C)CC1` (stereo not drawn): 100%.
Still for that read-out and setting: next, `CN(C(=O)CCC(=O)NC1CCC(c2cccs2)(N(C)C)CC1)C1CCN(Cc2ccc(-c3ccccc3)cc2)C1` (stereo not drawn): 60%; “N-[2-(2,6-dichloro-phenyl)-ethyl]-N′-(4- dimethylainino-4-thiophen-2-yl-cyclohexyl)- succinamide”: 96%; `CN(C)C1(c2ccccc2)CCC(NC(=O)CCC(=O)NCCc2ccccc2Cl)CC1` (stereo not drawn): 93%.
On the same count and under the same terms, next, `CN(C)C1(c2ccccc2)CCC(NC(=O)CCC(=O)N2CCC(Cc3ccccc3)CC2)CC1` (stereo not drawn): 95%; `CN(C)C1(c2cccs2)CCC(NC(=O)CCCC(=O)N2CCc3ccccc3C2)CC1` (stereo not drawn): 96%; `CCN(Cc1ccccc1)C(=O)CCC(=O)NC1CCC(c2cccs2)(N(C)C)CC1` (stereo not drawn): 92%.
In the case of `CN(C)C1(c2cccs2)CCC(NC(=O)CCC(=O)NCCSCc2c(Cl)cccc2Cl)CC1` (stereo not drawn), the “ORL1-binding, [1 μM], % inhibition” value is reported as 100%.
As for `CN(C)C1(c2cccs2)CCC(NC(=O)CCCC(=O)NCCc2ccc(Br)cc2)CC1` (stereo not drawn), the “ORL1-binding, [1 μM], % inhibition” value is 99%.
The same measure, in the same setting: next, `CC(C)CC(NC(=O)CCCC(=O)NC1CCC(c2cccs2)(N(C)C)CC1)C(=O)OCc1ccccc1` (stereo not drawn): 75%.
On to “Glutaric acid-(4-dimethylamino-4-thiophen- 2-yl-cyclohexyl)-amide[2-(4-fluoro- phenyl)-ethyl]-amide”, for which the “ORL1-binding, [1 μM], % inhibition” value amounted to 95%.
Same read-out and setting: next, `CN(C)C1(c2cccs2)CCC(NC(=O)CCCC(=O)NCc2cc(Cl)ccc2Cl)CC1` (stereo not drawn): 98%; `CN(C)C1(c2cccs2)CCC(NC(=O)CCCC(=O)NC2CCN(Cc3c(Cl)cccc3Cl)C2)CC1` (stereo not drawn): 95%.
For the molecule `CN(C)C1(c2cccs2)CCC(NC(=O)CCCC(=O)N2CCN(Cc3cc4ccccc4o3)CC2)CC1` (stereo not drawn), the “ORL1-binding, [1 μM], % inhibition” value is reported as 57%.
Still for that read-out and setting: in the case of `CC1CCC(NC(=O)CCCC(=O)NC2CCC(c3cccs3)(N(C)C)CC2)CC1` (stereo not drawn) it was 81%.
On to `CN(C)C1(c2cccs2)CCC(NC(=O)CCC(=O)Nc2ccc(Oc3ccccc3)cc2)CC1` (stereo not drawn), for which the “ORL1-binding, [1 μM], % inhibition” value worked out at 72%.
On to `CN(CCCNC(=O)CCC(=O)NC1CCC(c2cccs2)(N(C)C)CC1)c1ccccc1` (stereo not drawn), for which the “ORL1-binding, [1 μM], % inhibition” value is given as 88%.
Still for that read-out and setting: in the case of `CN(C)C1(c2ccccc2)CCC(NC(=O)CCC(=O)N(CCc2ccccc2)Cc2ccccc2)CC1` (stereo not drawn) it was 86%; in that of `CN(C)C1(c2ccccc2)CCC(NC(=O)CCC(=O)N2CCC(O)(c3cccc(C(F)(F)F)c3)CC2)CC1` (stereo not drawn), 77%.
The same measure, in the same setting: next, `CN(C)C1(c2ccccc2)CCC(NC(=O)CCC(=O)N2CCN(Cc3ccc(C(C)(C)C)cc3)CC2)CC1` (stereo not drawn): 79%; `CN(CC(=O)OCc1ccccc1)C(=O)CCCC(=O)NC1CCC(c2cccs2)(N(C)C)CC1` (stereo not drawn): 98%.
For the molecule `CN(C)C1(c2cccs2)CCC(NC(=O)CCCC(=O)Nc2ccc(NC(=O)OC(C)(C)C)cc2)CC1` (stereo not drawn), the “ORL1-binding, [1 μM], % inhibition” value came to 86%.
On the same count and under the same terms, in the case of `CN(C)C1(c2cccs2)CCC(NC(=O)CCCC(=O)NCC(C)(c2ccccc2)c2ccccc2)CC1` (stereo not drawn) it was 71%.
Same read-out and setting: next, `CN(C)C1(c2cccs2)CCC(NC(=O)CCCC(=O)NCCCc2ccccc2)CC1` (stereo not drawn): 94%; `CN(CCc1c[nH]c2ccccc12)C(=O)CCC(=O)NC1CCC(c2cccs2)(N(C)C)CC1` (stereo not drawn): 99%.
As for `CN(C)C1(c2cccs2)CCC(NC(=O)CCC(=O)NCCOc2ccccc2)CC1` (stereo not drawn), the “ORL1-binding, [1 μM], % inhibition” value is reported as 90%.
The same measure, in the same setting: in the case of “N-(4-dimethylamino-4-thiophen-2-yl- cyclohexyl)-4-oxo-4-[4-(5-trifluoromethyl- pyndrn-2-yl)-piperazin-1-yl]-butyramide” it was 49%; in that of `CN(C)C1(c2cccs2)CCC(NC(=O)CCCC(=O)NCc2ccc(F)cc2C(F)(F)F)CC1` (stereo not drawn), 96%; in that of `CN(C)C1(c2ccccc2)CCC(NC(=O)CCC(=O)NCCc2cccc(C(F)(F)F)c2)CC1` (stereo not drawn), 99%.
The same measure, in the same setting: next, `CCCCCNC(=O)CCC(=O)NC1CCC(c2ccccc2)(N(C)C)CC1` (stereo not drawn): 68%.
Regarding `CCN(CCNC(=O)CCC(=O)NC1CCC(c2cccs2)(N(C)C)CC1)c1cccc(C)c1` (stereo not drawn), the “ORL1-binding, [1 μM], % inhibition” value came to 73%.
For `CC(NC(=O)CCC(=O)NC1CCC(c2cccs2)(N(C)C)CC1)C(=O)OCc1ccccc1` (stereo not drawn), the “ORL1-binding, [1 μM], % inhibition” value stood at 91%.
In the case of `COc1ccc2ccccc2c1CN1CCN(C(=O)CCCC(=O)NC2CCC(c3cccs3)(N(C)C)CC2)CC1` (stereo not drawn), the “ORL1-binding, [1 μM], % inhibition” value came to 82%.
